Test results as given in article PMC11079024, “Identification of a family of species-selective complex I inhibitors as potential anthelmintics” (Nature Communications, 2024).
Where “and” joins values, the source holds several entries; their conditions need not be identical. Equal values may be shown once. Read-outs that look alike come from different tables or passages of the source.

By UniProt entry, the sequences of proteins in these tests, tags left out. Where a name states a change or a piece, a line headed by the entry shows the natural chain unless it says otherwise. Residues count along the entry.
UniProt O75251, 39-213: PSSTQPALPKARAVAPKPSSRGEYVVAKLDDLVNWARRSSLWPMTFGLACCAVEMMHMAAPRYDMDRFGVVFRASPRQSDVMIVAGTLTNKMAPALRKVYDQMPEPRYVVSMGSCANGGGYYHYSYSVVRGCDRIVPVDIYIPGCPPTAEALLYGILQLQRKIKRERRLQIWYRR
UniProt O75306, 34-463: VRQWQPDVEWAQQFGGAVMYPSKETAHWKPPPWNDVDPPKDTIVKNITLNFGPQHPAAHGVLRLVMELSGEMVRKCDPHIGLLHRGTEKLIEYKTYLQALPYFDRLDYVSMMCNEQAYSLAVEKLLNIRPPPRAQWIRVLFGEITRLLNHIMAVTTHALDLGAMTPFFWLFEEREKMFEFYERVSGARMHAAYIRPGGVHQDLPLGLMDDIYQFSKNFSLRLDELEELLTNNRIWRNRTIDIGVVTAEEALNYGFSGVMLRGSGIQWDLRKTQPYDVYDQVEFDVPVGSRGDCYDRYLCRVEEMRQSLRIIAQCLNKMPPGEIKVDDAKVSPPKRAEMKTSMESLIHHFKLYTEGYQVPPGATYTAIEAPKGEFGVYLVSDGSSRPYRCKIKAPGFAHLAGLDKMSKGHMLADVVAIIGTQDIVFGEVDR
UniProt P03886, whole entry: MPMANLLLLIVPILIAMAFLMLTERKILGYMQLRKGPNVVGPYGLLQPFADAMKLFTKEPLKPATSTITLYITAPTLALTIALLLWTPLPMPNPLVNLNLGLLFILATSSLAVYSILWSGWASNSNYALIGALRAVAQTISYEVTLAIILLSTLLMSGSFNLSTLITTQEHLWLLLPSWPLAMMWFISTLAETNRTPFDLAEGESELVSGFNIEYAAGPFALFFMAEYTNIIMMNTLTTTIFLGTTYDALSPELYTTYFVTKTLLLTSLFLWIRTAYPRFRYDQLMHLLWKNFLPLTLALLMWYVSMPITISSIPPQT
UniProt P03888: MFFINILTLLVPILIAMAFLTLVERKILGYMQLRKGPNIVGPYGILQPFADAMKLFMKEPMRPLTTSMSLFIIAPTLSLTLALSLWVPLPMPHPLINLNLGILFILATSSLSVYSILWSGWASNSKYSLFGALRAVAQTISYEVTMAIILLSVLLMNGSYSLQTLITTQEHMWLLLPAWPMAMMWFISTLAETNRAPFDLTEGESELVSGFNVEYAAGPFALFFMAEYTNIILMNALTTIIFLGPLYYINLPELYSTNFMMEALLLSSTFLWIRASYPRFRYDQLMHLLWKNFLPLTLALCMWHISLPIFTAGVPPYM
UniProt Q91WD5, 34-463: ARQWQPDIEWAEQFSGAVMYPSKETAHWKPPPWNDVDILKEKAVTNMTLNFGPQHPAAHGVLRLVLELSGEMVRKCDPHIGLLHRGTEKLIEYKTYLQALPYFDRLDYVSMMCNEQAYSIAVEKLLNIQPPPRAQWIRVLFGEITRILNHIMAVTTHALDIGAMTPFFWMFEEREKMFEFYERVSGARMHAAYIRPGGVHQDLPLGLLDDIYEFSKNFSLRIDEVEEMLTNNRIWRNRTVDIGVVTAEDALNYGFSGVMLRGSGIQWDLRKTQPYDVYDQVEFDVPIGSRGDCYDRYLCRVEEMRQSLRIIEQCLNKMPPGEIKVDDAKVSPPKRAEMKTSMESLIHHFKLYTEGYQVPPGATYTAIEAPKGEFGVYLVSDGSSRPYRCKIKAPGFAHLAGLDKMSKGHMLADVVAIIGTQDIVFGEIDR
UniProt Q9DC70, 36-224: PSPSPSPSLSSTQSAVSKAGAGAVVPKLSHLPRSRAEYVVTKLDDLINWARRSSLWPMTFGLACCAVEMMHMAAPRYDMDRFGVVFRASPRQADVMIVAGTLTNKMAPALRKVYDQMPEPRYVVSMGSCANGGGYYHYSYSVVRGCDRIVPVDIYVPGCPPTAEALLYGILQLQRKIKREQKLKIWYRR

Assays:
[1] = target: H. sapiens (HEK293 cells) complex I (Homo sapiens, UniProt O75251+O75306+P03886); experiment: In vitro complex I activity assay, HEK293 cell mitochondria; assay type: biochemical; settings: single replicate
[2] = target: M. musculus (heart) complex I (Mus musculus, UniProt P03888+Q91WD5+Q9DC70); assay type: biochemical; settings: for percent (%) in vitro complex I activity relative to solvent control / in vitro complex I activity relative to solvent control: M. musculus (heart) mitochondria, single replicate
L1 P. pacificus (PS312) = experiment: Liquid development and viability assay, P. pacificus; assay type: cell-based, Pristionchus pacificus; settings: liquid growth and development assay, 1 = like DMSO control, 0 = death
L1 C. briggsae (AF16) = experiment: Liquid development and viability assay, C. briggsae; assay type: cell-based, Caenorhabditis briggsae; settings: liquid growth and development assay, 1 = like DMSO control, 0 = death
[3] = system: ben-1 mutant (ECA882) C. elegans; settings: for C. elegans L1 relative development & viability (score 0-1 relative to DMSO controls): strain ECA882, deletion (ben-1); for C. elegans L1 relative development & viability: ECA882 deletion (ben-1)

For `CC(C)Cc1ccc(C(C)c2nc3ccccc3n2C)cc1` (stereo not drawn) [NPD8790], the “in vitro complex I activity relative to solvent control” value ([1]; 1.5 µM) was 126.484% and 100.000% and 83.434% and 67.935% and 100.438%, the “in vitro complex I activity relative to solvent control” value ([1]; 3 µM) was 151.598% and 93.260% and 100.000% and 70.972% and 96.208% and the “in vitro complex I activity relative to solvent control” value ([1]; 7.5 µM) was 126.027% and 98.589% and 83.133% and 65.435% and 94.458%. The “in vitro complex I activity relative to solvent control” value ([1]; 15 µM) was 25.114% and 216.301% and 16.566% and 62.487% and 104.809%, the “in vitro complex I activity relative to solvent control” value ([1]; 37.5 µM) was 46.575% and 23.197% and 30.723% and 68.669% and 94.799% and the “in vitro complex I activity relative to solvent control” value ([1]; 75 µM) was 52.968% and 56.739% and 34.940% and 68.660% and 94.062%. For the same molecule, the “percent (%) in vitro complex I activity relative to solvent control” value ([2]; 0.125 µM) was 109.547% and 101.293% and 94.390%, the “percent (%) in vitro complex I activity relative to solvent control” value ([2]; 0.313 µM) was 105.665% and 95.123% and 91.398% and the “percent (%) in vitro complex I activity relative to solvent control” value ([2]; 1.5 µM) was 105.188% and 97.164% and 97.765%. The “percent (%) in vitro complex I activity relative to solvent control” value ([2]; 3 µM) was 102.668% and 98.080% and 95.248%, the “percent (%) in vitro complex I activity relative to solvent control” value ([2]; 7.5 µM) was 102.572% and 88.568% and 86.011% and the “percent (%) in vitro complex I activity relative to solvent control” value ([2]; 15 µM) was 87.100% and 75.283% and 75.658%. For the same molecule, the “percent (%) in vitro complex I activity relative to solvent control” value ([2]; 37.5 µM) was 50.337% and 43.421% and 43.042%, the “percent (%) in vitro complex I activity relative to solvent control” value ([2]; 75 µM) was 29.417% and 25.967% and 25.618% and the “in vitro complex I activity relative to solvent control” value ([2]; 0.06 µM) was 102.752% and 117.261% and 99.301% and 94.461%. For the same molecule, the “in vitro complex I activity relative to solvent control” value ([2]; 0.13 µM) was 109.547% and 101.293% and 94.390%, the “in vitro complex I activity relative to solvent control” value ([2]; 0.313 µM) was 105.665% and 95.123% and 91.398% and the “in vitro complex I activity relative to solvent control” value ([2]; 1.5 µM) was 105.188% and 97.164% and 97.765%. The “in vitro complex I activity relative to solvent control” value ([2]; 3 µM) was 102.668% and 98.080% and 95.248%, the “in vitro complex I activity relative to solvent control” value ([2]; 7.5 µM) was 102.572% and 88.568% and 86.011% and the “in vitro complex I activity relative to solvent control” value ([2]; 15 µM) was 87.100% and 75.283% and 75.658%. The “in vitro complex I activity relative to solvent control” value ([2]; 37.5 µM) was 50.337% and 43.421% and 43.042%, the “in vitro complex I activity relative to solvent control” value ([2]; 75 µM) was 29.417% and 25.967% and 25.618% and the “M. musculus: C. elegans IC50 Fold Change” value ([2]; mouse, heart mitochondria) was 12.3. For the same molecule, the “viability score (0-1) relative to DMSO controls” value (L1 P. pacificus (PS312); 2 µM) was 1.000, the “viability score (0-1) relative to DMSO controls” value (L1 P. pacificus (PS312); 3.9 µM) was 1.000 and the “viability score (0-1) relative to DMSO controls” value (L1 P. pacificus (PS312); 7.8 µM) was 1.000. The “viability score (0-1) relative to DMSO controls” value (L1 P. pacificus (PS312); 15.6 µM) was 1.000, the “viability score (0-1) relative to DMSO controls” value (L1 P. pacificus (PS312); 31.3 µM) was 1.000 and the “viability score (0-1) relative to DMSO controls” value (L1 P. pacificus (PS312); 62.5 µM) was 0.706. The “viability score (0-1) relative to DMSO controls” value (L1 P. pacificus (PS312); 125 µM) was 0.430, the “viability score (0-1) relative to DMSO controls” value (L1 P. pacificus (PS312); 250 µM) was 0.182 and the “viability score (0-1) relative to DMSO controls” value (L1 C. briggsae (AF16); 2 µM) was 1.000. The “viability score (0-1) relative to DMSO controls” value (L1 C. briggsae (AF16); 3.9 µM) was 1.000, the “viability score (0-1) relative to DMSO controls” value (L1 C. briggsae (AF16); 7.8 µM) was 1.000 and the “viability score (0-1) relative to DMSO controls” value (L1 C. briggsae (AF16); 15.6 µM) was 1.000. The “viability score (0-1) relative to DMSO controls” value (L1 C. briggsae (AF16); 31.3 µM) was 1.000, the “viability score (0-1) relative to DMSO controls” value (L1 C. briggsae (AF16); 62.5 µM) was 1.000 and the “viability score (0-1) relative to DMSO controls” value (L1 C. briggsae (AF16); 125 µM) was 0.426. For the same molecule, the “viability score (0-1) relative to DMSO controls” value (L1 C. briggsae (AF16); 250 µM) was 0.027, the “C. elegans L1 relative development & viability (score 0-1 relative to DMSO controls)” value ([3]; 1 µM) was 1.000 and the “C. elegans L1 relative development & viability (score 0-1 relative to DMSO controls)” value ([3]; 2 µM) was 1.000. For the same molecule, the “C. elegans L1 relative development & viability (score 0-1 relative to DMSO controls)” value ([3]; 3.9 µM) was 1.000, the “C. elegans L1 relative development & viability (score 0-1 relative to DMSO controls)” value ([3]; 7.8 µM) was 1.000 and the “C. elegans L1 relative development & viability (score 0-1 relative to DMSO controls)” value ([3]; 15.6 µM) was 0.845. For the same molecule, the “C. elegans L1 relative development & viability (score 0-1 relative to DMSO controls)” value ([3]; 31.3 µM) was 1.000, the “C. elegans L1 relative development & viability (score 0-1 relative to DMSO controls)” value ([3]; 62.5 µM) was 1.000 and the “C. elegans L1 relative development & viability (score 0-1 relative to DMSO controls)” value ([3]; 125 µM) was 1.000. For the same molecule, the “C. elegans L1 relative development & viability (score 0-1 relative to DMSO controls)” value ([3]; 250 µM) was 1.000, the “C. elegans L1 relative development & viability (score 0-1 relative to DMSO controls)” value ([3]; 500 µM) was 0.458 and the “C. elegans L1 relative development & viability” value ([3]; 1 µM, score 0-1 relative to DMSO, values >1 set to 1) was 1.000. The “C. elegans L1 relative development & viability” value ([3]; 2 µM, score 0-1 relative to DMSO, values >1 set to 1) was 1.000, the “C. elegans L1 relative development & viability” value ([3]; 3.9 µM, score 0-1 relative to DMSO, values >1 set to 1) was 1.000 and the “C. elegans L1 relative development & viability” value ([3]; 7.8 µM, score 0-1 relative to DMSO, values >1 set to 1) was 1.000. For the same molecule, the “C. elegans L1 relative development & viability” value ([3]; 15.6 µM, […]) was 0.845, the “C. elegans L1 relative development & viability” value ([3]; 31.3 µM, score 0-1 relative to DMSO, values >1 set to 1) was 1.000 and the “C. elegans L1 relative development & viability” value ([3]; 62.5 µM, score 0-1 relative to DMSO, values >1 set to 1) was 1.000. For the same molecule, the “C. elegans L1 relative development & viability” value ([3]; 125 µM, score 0-1 relative to DMSO, values >1 set to 1) was 1.000, the “C. elegans L1 relative development & viability” value ([3]; 250 µM, score 0-1 relative to DMSO, values >1 set to 1) was 1.000 and the “C. elegans L1 relative development & viability” value ([3]; 500 µM, […]) was 0.458.
